This note sets out measurements from ChEMBL document CHEMBL1123227, “Tricyclic epines. Novel (E)- and (Z)-11H-dibenz[b,e]azepines as potential central nervous system agents. Variation of the basic side chain” (1986).

The species entered for this test is Mus musculus. The test is described as follows: Sedative activity relative with respect to clozapine. Format: functional.

The compound `CCN1CCN(C2=Nc3ccccc3/C(=C\C#N)c3ccccc32)CC1` returned a Relative activity of under 0.04.

In turn, `Cc1ccc2c(c1)N=C(N1CCN(C)CC1)c1ccccc1/C2=C/C#N` came in with a Relative activity of 0.14.
